Assay results as given in the OPERA property sets (Mansouri et al. 2018).

Conditions: for log10 Henry constant (atm·m³/mol) / boiling point / melting point / log10 Koc (L/kg) / log10 vapour pressure (mmHg) / ready biodegradability: experimental values compiled from the literature

## CC(CO)O[N+](=O)[O-] (stereo not given)
  log10 Henry constant (atm·m³/mol): -6.65

## CP(=O)(Cl)Cl
  boiling point: 163 °C
  melting point: 36 °C

## Cc1cc([N+](=O)[O-])c(N(CCCl)CCCl)c([N+](=O)[O-])c1
  log10 Koc (L/kg): 3.94

## O=[N+]([O-])C([N+](=O)[O-])[N+](=O)[O-]
  melting point: 15 °C

## O=C(Cl)Oc1ccccc1
  log10 vapour pressure (mmHg): -0.249

## CC([N+](=O)[O-])([N+](=O)[O-])[N+](=O)[O-]
  melting point: 57 °C

## COc1ccc([N+](=O)[O-])cc1[N+](=O)[O-]
  melting point: 94.5 °C

## C1CN1
  log10 Koc (L/kg): 0.78
  log10 vapour pressure (mmHg): 2.33

## CN(C)[N+](=O)[O-]
  boiling point: 187 °C
  log10 vapour pressure (mmHg): -0.443
  melting point: 58 °C

## N=C(N)N[N+](=O)[O-]
  ready biodegradability: not readily biodegradable

## Nc1c([N+](=O)[O-])c(N)c([N+](=O)[O-])c(N)c1[N+](=O)[O-]
  melting point: 350 °C

## CN(c1c([N+](=O)[O-])cc([N+](=O)[O-])cc1[N+](=O)[O-])[N+](=O)[O-]
  melting point: 132 °C

## O=C(Cl)OCCOC(=O)Cl
  log10 vapour pressure (mmHg): -1.67

## Cc1ccc([N+](=O)[O-])c([N+](=O)[O-])c1
  boiling point: 284 °C
  melting point: 58.3 °C
  ready biodegradability: not readily biodegradable
fish
  log10 BCF: 0.48
  log10 biotransformation half-life (days): -1.4

## Cc1cc([N+](=O)[O-])cc([N+](=O)[O-])c1O
  log10 Henry constant (atm·m³/mol): -5.85
  log10 Koc (L/kg): 2.41
  log10 vapour pressure (mmHg): -3.92
  ready biodegradability: not readily biodegradable

## CP(=O)(Oc1ccccc1)Oc1ccccc1
  melting point: 35 °C

## CCCCC(CC)CO[PH](=O)OCC(CC)CCCC (stereo not given)
  log10 vapour pressure (mmHg): -4.24

## O=C(O)C(O)(c1ccccc1)c1ccccc1
  melting point: 151 °C
  ready biodegradability: not readily biodegradable
fish
  log10 BCF: 0.26

## CC(O)C(C)(C)C (stereo not given)
  boiling point: 120 °C
  melting point: 4.8 °C

## CCC(C)OC(=O)Cl (stereo not given)
  log10 vapour pressure (mmHg): 1.03

## CO[N+](=O)[O-]
  boiling point: 64.6 °C
  melting point: -82.5 °C

## O=[N+]([O-])c1cccc([N+](=O)[O-])c1
  boiling point: 291 °C
  log10 Henry constant (atm·m³/mol): -7.31
  log10 vapour pressure (mmHg): -3.05
  melting point: 90 °C
  ready biodegradability: not readily biodegradable
fish
  log10 BCF: 0.77

## O=[N+]([O-])c1cc([N+](=O)[O-])c(Cl)c([N+](=O)[O-])c1
  melting point: 83 °C

## ClP1Oc2ccccc2O1
  melting point: 30 °C

## N=C(NN)N[N+](=O)[O-]
  melting point: 185 °C

## O=[N+]([O-])OCC(O)CO[N+](=O)[O-]
  melting point: 26 °C

## CC(O)CO[N+](=O)[O-] (stereo not given)
  log10 Henry constant (atm·m³/mol): -7.04

## COP(C)(=O)OC
  boiling point: 181 °C
  log10 vapour pressure (mmHg): -0.0168

## CCP(Cl)Cl
  boiling point: 112 °C

## ClCCN(CCCl)c1ccccc1
  melting point: 45 °C

## C=CCOC(=O)Cl
  log10 vapour pressure (mmHg): 1.3

## O=[N+]([O-])c1ccccc1[N+](=O)[O-]
  log10 vapour pressure (mmHg): -4.34
  ready biodegradability: not readily biodegradable

## CCN(CC)CCCl.Cl
  melting point: 209 °C

## CCOP(=O)(CC)OCC
  boiling point: 198 °C
  log10 vapour pressure (mmHg): -1.14

## COc1c([N+](=O)[O-])cc([N+](=O)[O-])cc1[N+](=O)[O-]
  melting point: 69 °C

## CCOP(C)(=O)OCC
  boiling point: 194 °C
  log10 vapour pressure (mmHg): -1.88

## C[As](=O)([O-])O.[Na+]
  log10 vapour pressure (mmHg): -7.12

## OCCSCCO
  boiling point: 282 °C
  log10 vapour pressure (mmHg): -2.49
  melting point: -10.2 °C
  ready biodegradability: not readily biodegradable

## CC(C)OP(=S)(OC(C)C)SCCNS(=O)(=O)c1ccccc1
  log10 Koc (L/kg): 3
  log10 vapour pressure (mmHg): -6.1

## CC(CO[N+](=O)[O-])O[N+](=O)[O-] (stereo not given)
  log10 vapour pressure (mmHg): -0.422

## Cc1cccc([N+](=O)[O-])c1[N+](=O)[O-]
  boiling point: 284 °C
  melting point: 60 °C

## C[AsH2]
  boiling point: 2 °C
  melting point: -143 °C

## Nc1cc([N+](=O)[O-])cc([N+](=O)[O-])c1O
  melting point: 169 °C
fish
  log10 BCF: 0.47

## CCN(CC)CCCl
  boiling point: 146 °C
  melting point: 210 °C

## ClP(Cl)c1ccccc1
  ready biodegradability: not readily biodegradable

## CCCN(CCC)CCO
  boiling point: 196 °C

## CC(C)([N+](=O)[O-])[N+](=O)[O-]
  boiling point: 185 °C
  melting point: 54 °C

## O=[N+]([O-])N1CN([N+](=O)[O-])CN([N+](=O)[O-])C1
  log10 vapour pressure (mmHg): -8.39
  melting point: 206 °C
fish
  log10 BCF: 0.3

## O=[N+]([O-])OCCO[N+](=O)[O-]
  boiling point: 198 °C
  log10 vapour pressure (mmHg): -1.14
  melting point: -22.3 °C

## Cc1cc([N+](=O)[O-])ccc1[N+](=O)[O-]
  boiling point: 284 °C
  melting point: 52.5 °C

## O=[N+]([O-])OCC(CO[N+](=O)[O-])(CO[N+](=O)[O-])CO[N+](=O)[O-]
  log10 vapour pressure (mmHg): -8.26
  melting point: 140 °C
